The values that follow come from PubChem BioAssay AID1347041 (National Center for Advancing Translational Sciences (NCATS), 2019).

The entries are a selection whose mix differs from that of the whole data set. Some structures show a salt or complex split into parts, the way the source records it. The source made the active and inactive calls. No stated cut-off is given here; in the data, active means activity change below about -30%; inconclusive means mostly about -25% to -30%; inactive means weaker than that.

The assay addresses L-lactate dehydrogenase A chain (Homo sapiens) (UniProt P00338). The assay is described as follows: qHTS assay for inhibitors of human lactate dehydrogenase.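 Further: values are at about 110 or 230 µM; plate controls were DMSO wells for no effect and wells without enzyme for full effect.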 Particulars: purified LDHA, NADH/diaphorase-resazurin fluorescence; stronger effect = lower value. The source says: LDH is a key glycolytic enzyme that catalyzes the final step in the glycolytic pathway, reducing pyruvate to lactate and regenerating NAD+ equivalents necessary for continued glycolysis. LDHA has been linked to the carcinogenesis and malignancy in numerous forms of cancers and many other diseases. Consequently, both pharma and academia have invested in significant research efforts to identify small molecule therapeutics. Such attempts have been stalled or abandoned due to limited success in discovering potent and drug-like inhibitors that can be utilized to validate LDHA in vivo as a drug target, a necessary step toward advancing such a molecule towards the clinic Towards this goal we designed and performed a quantitative high-throughput screening (qHTS) campaign to discover novel compounds that are potent inhibitors of LDHA enzyme activity and cancer cell line growth.
The assay was optimized to 1536-well plates. Briefly, 3 µL of human lactate dehydrogenase 5 (#A38558H, Meridian Life Science, Inc., Memphis, TN) in LDH assay buffer (200 mM Tris HCl pH 7.4, 100 microM EDTA and 0.01% Tween-20) was added to a black solid bottom 1536-well assay plate (Greiner Bio-One) using a BioRAPTR FRD dispenser (Beckman Coulter, Brea, CA). A 1536-well pintool dispenser outfitted with 20 nL pins (Wako Automation, San Diego, CA) was used to transfer 23 nL of DMSO-solubilized compound (both library and vehicle controls) to each 1536-well assay plate. Following compound transfer, 1 µL of substrate solution containing NADH and sodium pyruvate (Sigma-Aldrich, St. Louis, MO) in LDH assay buffer was dispensed via BioRAPTR FRD to initiate the reaction. Final concentrations in the 4 microL reaction volume were 2 nM LDHA enzyme, 0.06 mM NADH and 0.2 mM sodium pyruvate. Following a 5 minute incubation period at room temperature, 1 µL of detection reagent (C. kluyveri diaphorase (Sigma-Aldrich) and resazurin sodium salt (Sigma-Aldrich) in LDH assay buffer) was added to a total volume of 5 µL. Final concentrations of detection reagents were 0.133 mg/mL diaphorase and 37 µM resazurin. Plates were immediately transferred to a ViewLux microplate imager (PerkinElmer, Waltham, MA), and any resulting resorufin fluorescence was measured (ex540, em590 nm) at 0 and 20 minutes. Fluorescence was normalized using enzyme-free and DMSO-treated control wells on each plate.
For orientation: In qHTS, concentration-response curves come from the screen itself.
As for `O=c1[nH]c2ccccc2n1C1CCN(C(c2cccc3ccccc23)c2nnnn2C2CCCC2)CC1` (stereo not drawn), the activity change is inactive: -6.15%.

Regarding `Cc1ccc(C(C)CCN(CCCl)CCCl)cc1` (stereo not drawn), the activity change is inactive: -4.77%. For the compound `O=C(NCC1(N2CCCCC2)CCCCC1)c1c[nH]c2ccccc12`, the activity change was inactive: 19.9%. For `CCOC(=O)N1CCC(Nc2cccc(C)c2)CC1`, the activity change was inactive: 1.38%. For the compound `COc1cc(C(=O)NCC2(N(C)C)CCCCC2)ccc1OC(F)F`, the activity change was inactive: -7.92%.

On to `O=c1[nH]c2ccccc2n1C1CCN(C(c2ccccc2)c2nnnn2C2CCCCC2)CC1` (stereo not drawn), for which the activity change was inactive: -7.64%. In the case of `CCCOc1ccccc1C(=O)NCC1(N2CCOCC2)CCCCC1`, the activity change is inactive: 10.9%. Then `COc1ccc(NC2CCN(CCc3ccccc3)CC2)c(OC)c1`, with inactive: 22.6%; and `CCOC(=O)N1CCC(Nc2ccc(F)cc2)CC1`, with inactive: 0.796%; and `CCCCn1nnnc1C(c1cc2ccccc2o1)N1CCC(n2c(=O)[nH]c3ccccc32)CC1` (stereo not drawn), with inactive: -0.105%. Then `O=P1(N(CCCl)CCCl)SCCCS1`, with inactive: -5.74%; and `CCCCOc1ccc(C(=O)NCC2(N3CCOCC3)CCCCC2)cc1`, with inactive: -8.1%; and `O=C(NCC1(N2CCCCC2)CCCCC1)c1ccc(F)cc1`, with inactive: -4.36%. On to `COc1ccccc1C(=O)NCC1(N2CCOCC2)CCCCC1`, for which the activity change was inactive: -2.49%.

As to `CN(C)C1(CNC(=O)c2nn(C)c(=O)c3ccccc23)CCCCC1`, the activity change was inactive: -18.6%.

`CCOc1ccc(C)cc1CN(CCCl)CCCl`: the activity change is inactive: -3.37%. On to `O=C1CCN(Cc2ccccc2)CC1`, for which the activity change was inactive: -1.52%.

For the compound `O=C(NCC1(N2CCOCC2)CCCCC1)c1ccc(Cl)cc1`, the activity change was inactive: 4.18%. For `CC(C)(C)n1nnnc1C(c1ccccc1)N1CCC(n2c(=O)[nH]c3ccccc32)CC1` (stereo not drawn), the activity change was inactive: 3.04%.

In the case of `CCCCn1nnnc1C(c1ccc(OC)cc1)N1CCC(n2c(=O)[nH]c3ccccc32)CC1` (stereo not drawn), the activity change is inactive: -1.8%.

On to `CCOC(=O)N1CCC(Nc2ccc(OC)cc2)CC1`, for which the activity change was inactive: 7.05%. Consider `COc1ccc(Cl)cc1C(=O)NCC1(N2CCOCC2)CCCCC1`, for which the activity change was inactive: -8.95%. Then `Fc1ccc(CN2CCC(Nc3ccccc3Cl)CC2)cc1`, with inactive: 4.47%. For `O=C1C(O)=C([N+](=O)[O-])C(=O)C(O)=C1[N+](=O)[O-]`, the activity change is inactive: 3.92%.

Consider `O=C(NCC1(N2CCCCC2)CCCCC1)c1ccc(Cl)s1`, for which the activity change is inactive: 3.8%. Consider `N#CC1(Nc2ccccc2)CCN(Cc2ccccc2)CC1`, for which the activity change is inactive: -2.93%. Then `O=C(OC1CN2CCC1CC2)C1c2ccccc2Oc2ccccc21` (stereo not drawn), with inactive: 17.1%; and `CC1CN(CCc2ccccc2)CCC1=O` (stereo not drawn), with inactive: -1.11%. As to `O=c1[nH]c2ccccc2n1C1CCN(C(c2cc3ccccc3o2)c2nnnn2C2CCCCC2)CC1` (stereo not drawn), the activity change is inactive: -8.45%. Turning to `O=C(NCC1(N2CCOCC2)CCCCC1)c1cc2ccccc2o1`, the activity change is inactive: -1.46%.

As to `Cc1cc(C)cc(N(C(=O)c2ccccc2)C2CCN(C(=O)OC(C)(C)C)CC2)c1`, the activity change is inactive: -0.888%. Consider `O=C(NCC1(N2CCCCC2)CCCCC1)c1ccc(Cl)nc1`, for which the activity change was inactive: -0.514%. Turning to `O=c1[nH]c2ccccc2n1C1CCN(C(c2ccccc2OC(F)(F)F)c2nnnn2C2CCCCC2)CC1` (stereo not drawn), the activity change is inactive: -2.43%. In the case of `Cc1cccc(NC2(C#N)CCN(Cc3ccccc3)CC2)c1`, the activity change was inactive: -0.769%. Turning to `CSc1ccccc1C(=O)NCC1(N2CCCCC2)CCCCC1`, the activity change is inactive: -14.4%. For `O=C(NCC1(N2CCCCC2)CCCCC1)c1cccs1`, the activity change was inactive: -1.41%.

In the case of `CCCCn1nnnc1C(CC)N1CCC(n2c(=O)[nH]c3ccccc32)CC1` (stereo not drawn), the activity change is inactive: -7.6%. Then `CCCCn1nnnc1C(c1cccs1)N1CCC(n2c(=O)[nH]c3ccccc32)CC1` (stereo not drawn), with inactive: -3.53%; and `O=C(NCC1(N2CCCCC2)CCCCC1)c1ccc(=O)[nH]c1`, with inactive: -0.713%; and `CC(C)(C)OC(=O)N1CCC(N(C(=O)c2ccccc2)c2ccc(F)cc2)CC1`, with inactive: -4.15%. Consider `COc1ccc(C(=O)NCC2(N3CCCCC3)CCCCC2)c(OC)c1OC`, for which the activity change is inactive: -4.13%. For the compound `CCC(c1nnnn1C1CCCC1)N1CCC(n2c(=O)[nH]c3ccccc32)CC1` (stereo not drawn), the activity change is inactive: -5.2%. As to `COc1ccc(C(=O)NCC2(N3CCCCC3)CCCCC2)cc1`, the activity change was inactive: -7.21%. On to `O=C(NCC1(N2CCOCC2)CCCCC1)c1ccccc1Br`, for which the activity change is inactive: -6.61%. In the case of `CCCOc1ccc(C(=O)NCC2(N(C)C)CCCCC2)cc1OC`, the activity change was inactive: -6.75%. In the case of `CCCCOc1ccccc1C(=O)NCC1(N2CCOCC2)CCCCC1`, the activity change is inactive: 4.2%. As for `Cc1ccc(C(=O)NCC2(N(C)C)CCCCC2)o1`, the activity change is inactive: -0.183%. For `O=C(NCC1(N2CCOCC2)CCCCC1)c1c[nH]c2ccccc12`, the activity change is inactive: 4.96%. Then `O=[N+]([O-])c1cc([N+](=O)[O-])c(Nc2ccc(Cl)cc2)c([N+](=O)[O-])c1`, with inactive: 2.02%; and `COc1ccc(C(c2nnnn2C2CCCC2)N2CCC(n3c(=O)[nH]c4ccccc43)CC2)cc1` (stereo not drawn), with inactive: -2.82%; and `CN1CCC(Nc2cccc(F)c2)CC1`, with inactive: -9.54%. On to `COc1ccc2c(c1O)-c1c(O)c(OC)cc3c1[C@H](C2)[N+](C)(C)CC3.O=[N+]([O-])c1cc([N+](=O)[O-])c([O-])c([N+](=O)[O-])c1[O-]`, for which the activity change is inactive: 7.39%. As to `O=C(NCC1(N2CCCCC2)CCCCC1)c1cncc(Br)c1`, the activity change is inactive: -4.55%. For the compound `COc1ccccc1C(=O)NCC1(N(C)C)CCCCC1`, the activity change is inactive: -0.161%. For `O=C(OC1CN2CCC1CC2)c1ccc([N+](=O)[O-])cc1` (stereo not drawn), the activity change is inactive: 3.51%. For the compound `CCCCn1nnnc1C(c1ccnc2ccccc12)N1CCC(n2c(=O)[nH]c3ccccc32)CC1` (stereo not drawn), the activity change was inactive: 0.424%. Then `O=C(NCC1(N2CCOCC2)CCCCC1)c1cc(F)c(F)cc1Cl`, with inactive: -9.55%.

As to `CCC(c1nnnn1C(C)(C)C)N1CCC(n2c(=O)[nH]c3ccccc32)CC1` (stereo not drawn), the activity change was inactive: -3.97%.

For `COc1cc(OC)c(C(=O)NCC2(N(C)C)CCCCC2)cc1OC`, the activity change was inactive: -4.64%. Then `O=[N+]([O-])c1cc([N+](=O)[O-])c(OC2CCCCC2O)c([N+](=O)[O-])c1` (stereo not drawn), with inactive: 2.86%; and `CN(C)c1cccc(C(=O)NCC2(N3CCCCC3)CCCCC2)c1`, with inactive: 1.73%.

Regarding `COc1ccc(CN(CCCl)CCCl)cc1Cl`, the activity change was inactive: 1.27%.

As to `CCCCn1nnnc1C(c1ccccc1OC(F)(F)F)N1CCC(n2c(=O)[nH]c3ccccc32)CC1` (stereo not drawn), the activity change is inactive: -1.24%. For the compound `CC(C)c1ccc(NC2CCN(C(=O)OC(C)(C)C)CC2)cc1`, the activity change is inactive: 7.05%. For the compound `CN1CCN(CCOC(=O)C(O)(c2ccccc2)c2ccccc2)CC1`, the activity change is inactive: -11.6%. For the compound `CC(C)c1ccc(C(=O)NCC2(N3CCOCC3)CCCCC2)cc1`, the activity change is inactive: -1.24%. Turning to `COc1ccc(NC2CCN(C(=O)OC(C)(C)C)CC2)cc1`, the activity change is inactive: 7.07%. As for `CCCCn1nnnc1C(c1cccc2ccccc12)N1CCC(n2c(=O)[nH]c3ccccc32)CC1` (stereo not drawn), the activity change was inactive: -0.64%.

For `CCc1cc(C(=O)NCC2(N3CCOCC3)CCCCC2)sc1C`, the activity change was inactive: 2.07%. For the compound `COc1cc(C(=O)NCC2(N3CCCCC3)CCCCC2)ccc1OC(F)F`, the activity change was inactive: -4.9%.

Turning to `O=C(NCC1(N2CCOCC2)CCCCC1)c1cc(=O)[nH]c2ccccc12`, the activity change was inactive: -3.87%. With `CCCOc1cccc(C(=O)NCC2(N(C)C)CCCCC2)c1`, the activity change was inactive: -9.15%. For the compound `CCCOc1cccc(C(=O)NCC2(N3CCOCC3)CCCCC2)c1`, the activity change is inactive: -6.61%. With `O=C(NCC1(N2CCCCC2)CCCCC1)c1cccc(C(F)(F)F)c1`, the activity change is inactive: -9.18%. As to `O=[N+]([O-])c1cc([N+](=O)[O-])c(NCC2CCS(=O)(=O)C2)c([N+](=O)[O-])c1` (stereo not drawn), the activity change was inactive: 15.6%. Then `CCOc1ccc(C(=O)NCC2(N3CCOCC3)CCCCC2)cc1`, with inactive: -1.15%. As to `O=C(NCC1(N2CCCCC2)CCCCC1)c1cccc([N+](=O)[O-])c1`, the activity change is inactive: -8.51%. Turning to `CSc1ccc(C(=O)NCC2(N3CCOCC3)CCCCC2)cc1`, the activity change is inactive: -11.1%. Consider `O=c1[nH]c2ccccc2n1C1CCN(C(c2ccccc2OC(F)(F)F)c2nnnn2C2CCCC2)CC1` (stereo not drawn), for which the activity change was inactive: -2.39%. Consider `N#CC1(Nc2ccccc2)CCN(CCc2ccccc2)CC1`, for which the activity change was inactive: -1.11%. Regarding `CCN1CCC(Nc2ccc(Cl)cc2)CC1`, the activity change was inactive: 4.97%. As for `O=C(NCC1(N2CCOCC2)CCCCC1)c1cc2c(s1)CCCC2`, the activity change was inactive: 1.49%. `O=C(NCC1(N2CCCCC2)CCCCC1)c1ccc(OC(F)F)cc1`: the activity change is inactive: -5.7%. Consider `CC(C)(C)n1nnnc1C(c1ccccc1OC(F)(F)F)N1CCC(n2c(=O)[nH]c3ccccc32)CC1` (stereo not drawn), for which the activity change is inactive: 1.2%. Turning to `Brc1ccc(NC2CCN(Cc3cccc(Br)c3)CC2)cc1`, the activity change was inactive: 5.53%. For `CC(C)(C)n1nnnc1C(c1cccc2ccccc12)N1CCC(n2c(=O)[nH]c3ccccc32)CC1` (stereo not drawn), the activity change is inactive: -14.5%. As to `O=C(NCC1(N2CCOCC2)CCCCC1)c1ccccc1`, the activity change was inactive: -11.1%. Then `Cc1cc(N(CCCl)CCCl)ccc1C=O`, with inactive: -2.53%; and `O=c1[nH]c2ccccc2n1C1CCN(C(c2ccccc2)c2nnnn2C2CCCC2)CC1` (stereo not drawn), with inactive: -3.87%; and `CCCN1CCC(Nc2cc(OC)cc(OC)c2)CC1`, with inactive: 24.3%. Take `c1ccc(CN2CCC(Nc3ccccc3)CC2)cc1`: the activity change was inactive: -1.94%. With `CN(C)C1(CNC(=O)c2cccc(C#N)c2)CCCCC1`, the activity change was inactive: -4.18%. On to `CCOC(=O)C(CC)C1=NC(C)(C)Cc2ccccc21.O=[N+]([O-])c1cc([N+](=O)[O-])c(O)c([N+](=O)[O-])c1` (stereo not drawn), for which the activity change was inactive: -4.95%.
